Test: Solubility parameter δ of the acid; further: unit not given here
Conditions: product for the acid

| SMILES | δ × pKH.sbsb.2O |
| --- | --- |
| O=C(O)c1ccccc1O [ortho-ONa-benzoic acid] | 42 |
| O=C(O)c1ccccc1O [ortho-hydroxy benzoic acid] | 42 |

From US4393178A, “Fast crystallizing polyester compositions” (priority 1979, dated 1983)
